The source of these data is US20250295763A1 (priority 2024, published 2025).

The conditions of data set [1]: background statement; cited from earlier work.
For data set [2] the following is noted: mouse, in vivo.

For QS-21, in data set [1], the solubility in water entry is reported as “especially soluble”.

Turning to Poly(I:C) [reference compound], in data set [2], the “Average body weight loss Post-dose 1 D 1” value is recorded as −4.287, the “Average body weight loss Post-dose 1 D 2” value was 1.634, the “Average body weight loss Post-dose 1 D 14” value was 9.773 and the “Average body weight loss Post-dose 2 D 15” value is −5.203. For the same substance, in data set [2], the “Average body weight loss Post-dose 2 D 16” value was −2.131 and the “Average body weight loss Post-dose 2 D 21” value was −0.204.
